Patent US9475817B2 (BRISTOL-MYERS SQUIBB COMPANY, priority 2012, dated 2016)

By UniProt entry, the sequences of proteins in these tests, tags left out. Where a name states a change or a piece, a line headed by the entry shows the natural chain unless it says otherwise.
UniProt P49674: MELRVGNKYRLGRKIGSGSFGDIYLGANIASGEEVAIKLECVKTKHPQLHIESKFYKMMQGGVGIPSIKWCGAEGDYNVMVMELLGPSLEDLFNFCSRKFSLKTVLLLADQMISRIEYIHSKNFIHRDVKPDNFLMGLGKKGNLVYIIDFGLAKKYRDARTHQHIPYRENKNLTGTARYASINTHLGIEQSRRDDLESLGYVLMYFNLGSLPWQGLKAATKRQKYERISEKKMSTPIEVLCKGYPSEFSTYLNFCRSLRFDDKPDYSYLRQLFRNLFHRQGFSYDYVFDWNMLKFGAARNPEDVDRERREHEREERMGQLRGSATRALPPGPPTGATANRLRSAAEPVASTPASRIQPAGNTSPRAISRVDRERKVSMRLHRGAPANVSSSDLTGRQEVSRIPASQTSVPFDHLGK
UniProt P48730: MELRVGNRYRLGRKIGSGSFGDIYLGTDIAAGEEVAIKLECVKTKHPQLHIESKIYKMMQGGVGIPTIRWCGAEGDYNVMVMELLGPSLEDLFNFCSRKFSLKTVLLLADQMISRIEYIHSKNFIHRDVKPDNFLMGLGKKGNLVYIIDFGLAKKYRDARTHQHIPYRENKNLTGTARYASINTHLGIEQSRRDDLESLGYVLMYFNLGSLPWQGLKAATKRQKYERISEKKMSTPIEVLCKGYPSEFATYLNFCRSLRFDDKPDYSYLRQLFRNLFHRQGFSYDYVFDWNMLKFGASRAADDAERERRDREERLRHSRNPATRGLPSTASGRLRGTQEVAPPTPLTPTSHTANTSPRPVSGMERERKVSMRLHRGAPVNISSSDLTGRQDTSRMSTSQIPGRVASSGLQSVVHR

The molecules below were run against CK1ε (Homo sapiens (Human), UniProt P49674) (assay: CK1ε kinase assay (Caliper LabChip, fluoresceinated peptide substrate)). Details: 200 pM CK1ε, 50 μM ATP, 1.5 μM peptide substrate, 22 hours room temperature.
Assay type: biochemical
Description: (§1) CK1ε and CK1δ Kinase Assays
(§2) The kinase assay was performed in V-bottom 384-well plates. […] The reaction was incubated at room temperature for 22 hours and terminated by adding 45 μl of 35 mM EDTA to each sample. […] Compounds were dissolved at 10 mM in dimethylsulfoxide (DMSO) and evaluated at eleven concentrations. IC50 values were derived by non-linear regression analysis.

Structure (SMILES)	IC50
Cn1cc(-c2ccc3nc(NC(=O)c4cncc(Cl)c4)cn3n2)c(-c2ccc(F)cc2)n1 [Compound 46, 5-chloro-N-(6-(3-(4-fluorophenyl)-1-methyl-1H-pyrazol-4-yl)imidazo[1,2-b]pyridazin-2-yl)nicotinamide]	10.2 nM
COc1ncccc1C(=O)Nc1cn2nc(-c3cn(C)nc3-c3ccc(F)cc3)ccc2n1 [Compound 77, N-(6-(3-(4-fluorophenyl)-1-methyl-1H-pyrazol-4-yl)imidazo[1,2-b]pyridazin-2-yl)-2-methoxynicotinamide]	60.2 nM

The next lines start with the values.

IC50	Structure (SMILES)
6.1 nM	Cn1cc(C(=O)Nc2cn3nc(-c4cn(C)nc4-c4ccc(F)cc4)ccc3n2)cn1 [Compound 98, N-(6-(3-(4-fluorophenyl)-1-methyl-1H-pyrazol-4-yl)imidazo[1,2-b]pyridazin-2-yl)-1-methyl-1H-pyrazole-4-carboxamide]
11.7 nM	Cn1nc(-c2ccc(F)cc2)c(-c2ccc3nc(NC(=O)c4ccncc4)cn3n2)c1C1CCN(Cc2cscn2)CC1 [Compound 171, N-(6-(3-(4-fluorophenyl)-1-methyl-5-(1-(thiazol-4-ylmethyl)piperidin-4-yl)-1H-pyrazol-4-yl)imidazo[1,2-b]pyridazin-2-yl) isonicotinamide]

What follows are molecules tested against CK1δ (Homo sapiens (Human), UniProt P48730) (assay: CK1δ kinase assay (Caliper LabChip, fluoresceinated peptide substrate)). Details: 200 pM CK1δ, 50 μM ATP, 1.5 μM peptide substrate, 22 hours room temperature.
Assay type: biochemical
Description: as §1, §2

IC50	Structure (SMILES)
10.2 nM	COc1cc(C(=O)Nc2cn3nc(-c4cn(C)nc4-c4ccc(F)cc4)ccc3n2)nc(OC)n1 [Compound 39, N-(6-(3-(4-fluorophenyl)-1-methyl-1H-pyrazol-4-yl)imidazo[1,2-b]pyridazin-2-yl)-2,6-dimethoxypyrimidine-4-carboxamide]
20.4 nM	Cn1cc(-c2ccc3nc(NC(=O)c4ccnc(C(C)(C)C)c4)cn3n2)c(-c2ccc(F)cc2)n1 [Compound 50, 2-(tert-butyl)-N-(6-(3-(4-fluorophenyl)-1-methyl-1H-pyrazol-4-yl)imidazo[1,2-b]pyridazin-2-yl)isonicotinamide]
5.1 nM	Cn1cc(-c2ccc3nc(NC(=O)C4CCCCC4)cn3n2)c(-c2ccc(F)cc2)n1 [Compound 87, N-(6-(3-(4-fluorophenyl)-1-methyl-1H-pyrazol-4-yl)imidazo[1,2-b]pyridazin-2-yl)cyclohexanecarboxamide]
23.9 nM	CN1CCC(C(=O)Nc2cn3nc(-c4cn(C)nc4-c4ccc(F)cc4)ccc3n2)CC1 [Compound 90, N-(6-(3-(4-fluorophenyl)-1-methyl-1H-pyrazol-4-yl)imidazo[1,2-b]pyridazin-2-yl)-1-methylpiepridine-4-carboxamide]
